Amino acid sequences for entries named in this document (tags omitted). Residues count along the entry.
UniProt Q62645, 28-1323: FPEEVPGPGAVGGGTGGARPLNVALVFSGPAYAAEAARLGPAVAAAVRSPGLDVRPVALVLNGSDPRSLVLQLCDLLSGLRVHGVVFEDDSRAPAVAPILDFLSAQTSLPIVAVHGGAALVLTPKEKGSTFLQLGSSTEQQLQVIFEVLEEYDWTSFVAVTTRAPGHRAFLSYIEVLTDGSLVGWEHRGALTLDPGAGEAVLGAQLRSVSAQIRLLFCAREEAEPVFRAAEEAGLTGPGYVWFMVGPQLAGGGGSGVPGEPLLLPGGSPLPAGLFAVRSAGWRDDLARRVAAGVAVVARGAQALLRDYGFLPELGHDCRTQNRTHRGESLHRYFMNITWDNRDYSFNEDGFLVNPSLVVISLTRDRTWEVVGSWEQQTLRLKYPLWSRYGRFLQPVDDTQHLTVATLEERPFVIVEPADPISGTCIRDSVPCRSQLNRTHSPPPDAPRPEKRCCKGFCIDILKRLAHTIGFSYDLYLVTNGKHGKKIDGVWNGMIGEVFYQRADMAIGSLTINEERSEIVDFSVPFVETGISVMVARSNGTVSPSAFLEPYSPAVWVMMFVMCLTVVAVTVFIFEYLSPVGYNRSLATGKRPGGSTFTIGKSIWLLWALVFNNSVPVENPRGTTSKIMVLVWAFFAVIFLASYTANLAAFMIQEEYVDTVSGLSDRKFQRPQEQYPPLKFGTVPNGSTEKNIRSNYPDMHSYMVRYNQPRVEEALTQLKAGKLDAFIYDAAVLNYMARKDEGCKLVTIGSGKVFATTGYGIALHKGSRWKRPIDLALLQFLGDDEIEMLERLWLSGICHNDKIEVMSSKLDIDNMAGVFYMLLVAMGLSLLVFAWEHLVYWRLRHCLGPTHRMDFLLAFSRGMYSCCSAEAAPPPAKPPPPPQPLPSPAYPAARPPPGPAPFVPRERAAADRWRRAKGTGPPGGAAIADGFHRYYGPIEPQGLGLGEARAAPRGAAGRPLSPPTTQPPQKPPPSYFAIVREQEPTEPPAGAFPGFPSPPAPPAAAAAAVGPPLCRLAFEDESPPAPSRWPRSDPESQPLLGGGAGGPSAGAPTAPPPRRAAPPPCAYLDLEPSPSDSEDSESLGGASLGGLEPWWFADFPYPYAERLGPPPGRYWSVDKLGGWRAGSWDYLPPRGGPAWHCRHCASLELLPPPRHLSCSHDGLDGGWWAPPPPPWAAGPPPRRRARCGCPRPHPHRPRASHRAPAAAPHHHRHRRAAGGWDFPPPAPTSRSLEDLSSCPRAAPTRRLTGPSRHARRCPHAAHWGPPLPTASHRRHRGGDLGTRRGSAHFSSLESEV
UniProt Q00961, 20-1237: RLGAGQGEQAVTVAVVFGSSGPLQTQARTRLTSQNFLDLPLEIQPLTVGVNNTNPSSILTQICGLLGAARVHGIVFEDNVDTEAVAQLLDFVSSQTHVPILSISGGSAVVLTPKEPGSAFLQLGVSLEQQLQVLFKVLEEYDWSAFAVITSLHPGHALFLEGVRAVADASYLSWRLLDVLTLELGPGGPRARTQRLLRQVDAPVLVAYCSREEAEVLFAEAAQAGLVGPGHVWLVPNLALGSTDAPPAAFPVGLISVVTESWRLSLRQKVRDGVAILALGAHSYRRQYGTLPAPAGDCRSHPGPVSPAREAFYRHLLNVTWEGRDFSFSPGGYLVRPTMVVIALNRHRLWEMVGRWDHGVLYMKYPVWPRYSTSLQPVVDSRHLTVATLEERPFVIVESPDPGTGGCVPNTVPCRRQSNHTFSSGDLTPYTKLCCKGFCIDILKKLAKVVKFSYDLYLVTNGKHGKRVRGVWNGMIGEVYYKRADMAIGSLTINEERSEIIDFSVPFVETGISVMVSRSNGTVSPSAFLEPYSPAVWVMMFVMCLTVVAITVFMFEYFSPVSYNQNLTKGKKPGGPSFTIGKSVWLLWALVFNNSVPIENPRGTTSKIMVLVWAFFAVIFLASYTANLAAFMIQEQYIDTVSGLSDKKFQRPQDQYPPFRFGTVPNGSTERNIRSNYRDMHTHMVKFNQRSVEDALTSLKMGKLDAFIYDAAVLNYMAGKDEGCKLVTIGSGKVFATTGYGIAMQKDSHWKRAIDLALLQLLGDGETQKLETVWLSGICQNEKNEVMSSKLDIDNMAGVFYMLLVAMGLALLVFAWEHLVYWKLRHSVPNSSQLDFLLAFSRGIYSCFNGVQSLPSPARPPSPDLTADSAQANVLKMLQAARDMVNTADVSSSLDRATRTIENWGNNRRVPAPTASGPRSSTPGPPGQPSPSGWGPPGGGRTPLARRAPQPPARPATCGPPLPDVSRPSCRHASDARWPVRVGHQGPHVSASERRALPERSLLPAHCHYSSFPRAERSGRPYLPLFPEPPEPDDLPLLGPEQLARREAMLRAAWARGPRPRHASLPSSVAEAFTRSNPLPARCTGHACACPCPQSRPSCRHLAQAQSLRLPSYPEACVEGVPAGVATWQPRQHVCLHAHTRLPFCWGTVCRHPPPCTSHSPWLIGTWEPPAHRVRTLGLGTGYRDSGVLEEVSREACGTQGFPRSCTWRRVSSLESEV
UniProt Q00959, 23-1464: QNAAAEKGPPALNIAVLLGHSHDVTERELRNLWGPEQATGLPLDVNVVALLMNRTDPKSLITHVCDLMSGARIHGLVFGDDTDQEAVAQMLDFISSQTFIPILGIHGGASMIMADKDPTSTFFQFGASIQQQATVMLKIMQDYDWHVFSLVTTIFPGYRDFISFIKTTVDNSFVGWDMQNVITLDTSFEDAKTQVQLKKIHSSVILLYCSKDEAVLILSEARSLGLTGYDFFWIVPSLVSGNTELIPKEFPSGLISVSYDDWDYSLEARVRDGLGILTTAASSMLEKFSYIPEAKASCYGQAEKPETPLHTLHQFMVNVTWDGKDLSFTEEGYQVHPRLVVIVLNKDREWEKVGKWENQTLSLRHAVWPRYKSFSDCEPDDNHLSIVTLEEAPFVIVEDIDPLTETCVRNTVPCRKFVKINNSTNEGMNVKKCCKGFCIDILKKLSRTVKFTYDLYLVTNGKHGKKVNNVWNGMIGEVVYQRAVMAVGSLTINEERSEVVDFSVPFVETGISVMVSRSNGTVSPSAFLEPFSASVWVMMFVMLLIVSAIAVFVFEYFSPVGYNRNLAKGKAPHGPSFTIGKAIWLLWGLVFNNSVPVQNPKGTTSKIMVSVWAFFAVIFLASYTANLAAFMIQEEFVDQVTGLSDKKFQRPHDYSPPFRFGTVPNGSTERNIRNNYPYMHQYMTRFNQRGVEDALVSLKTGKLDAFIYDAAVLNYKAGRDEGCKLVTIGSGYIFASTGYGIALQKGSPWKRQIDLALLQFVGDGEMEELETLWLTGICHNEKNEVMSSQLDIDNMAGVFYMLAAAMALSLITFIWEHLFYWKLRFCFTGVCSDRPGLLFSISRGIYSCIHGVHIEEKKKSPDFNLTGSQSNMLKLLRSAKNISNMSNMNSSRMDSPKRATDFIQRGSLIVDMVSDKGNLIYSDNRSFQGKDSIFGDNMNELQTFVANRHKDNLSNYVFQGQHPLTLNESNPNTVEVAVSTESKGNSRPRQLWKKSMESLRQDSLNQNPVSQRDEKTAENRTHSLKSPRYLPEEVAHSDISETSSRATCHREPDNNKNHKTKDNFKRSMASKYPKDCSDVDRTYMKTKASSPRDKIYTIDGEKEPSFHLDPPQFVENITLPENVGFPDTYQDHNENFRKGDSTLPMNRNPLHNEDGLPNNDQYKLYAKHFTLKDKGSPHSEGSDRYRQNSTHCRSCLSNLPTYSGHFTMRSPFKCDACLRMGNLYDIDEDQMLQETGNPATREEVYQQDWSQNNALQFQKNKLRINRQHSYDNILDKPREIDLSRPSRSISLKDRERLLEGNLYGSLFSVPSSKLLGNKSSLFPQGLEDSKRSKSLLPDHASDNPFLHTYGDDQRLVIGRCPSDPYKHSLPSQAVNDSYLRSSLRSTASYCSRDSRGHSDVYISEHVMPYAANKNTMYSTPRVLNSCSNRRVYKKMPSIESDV
UniProt Q00960, 27-1482: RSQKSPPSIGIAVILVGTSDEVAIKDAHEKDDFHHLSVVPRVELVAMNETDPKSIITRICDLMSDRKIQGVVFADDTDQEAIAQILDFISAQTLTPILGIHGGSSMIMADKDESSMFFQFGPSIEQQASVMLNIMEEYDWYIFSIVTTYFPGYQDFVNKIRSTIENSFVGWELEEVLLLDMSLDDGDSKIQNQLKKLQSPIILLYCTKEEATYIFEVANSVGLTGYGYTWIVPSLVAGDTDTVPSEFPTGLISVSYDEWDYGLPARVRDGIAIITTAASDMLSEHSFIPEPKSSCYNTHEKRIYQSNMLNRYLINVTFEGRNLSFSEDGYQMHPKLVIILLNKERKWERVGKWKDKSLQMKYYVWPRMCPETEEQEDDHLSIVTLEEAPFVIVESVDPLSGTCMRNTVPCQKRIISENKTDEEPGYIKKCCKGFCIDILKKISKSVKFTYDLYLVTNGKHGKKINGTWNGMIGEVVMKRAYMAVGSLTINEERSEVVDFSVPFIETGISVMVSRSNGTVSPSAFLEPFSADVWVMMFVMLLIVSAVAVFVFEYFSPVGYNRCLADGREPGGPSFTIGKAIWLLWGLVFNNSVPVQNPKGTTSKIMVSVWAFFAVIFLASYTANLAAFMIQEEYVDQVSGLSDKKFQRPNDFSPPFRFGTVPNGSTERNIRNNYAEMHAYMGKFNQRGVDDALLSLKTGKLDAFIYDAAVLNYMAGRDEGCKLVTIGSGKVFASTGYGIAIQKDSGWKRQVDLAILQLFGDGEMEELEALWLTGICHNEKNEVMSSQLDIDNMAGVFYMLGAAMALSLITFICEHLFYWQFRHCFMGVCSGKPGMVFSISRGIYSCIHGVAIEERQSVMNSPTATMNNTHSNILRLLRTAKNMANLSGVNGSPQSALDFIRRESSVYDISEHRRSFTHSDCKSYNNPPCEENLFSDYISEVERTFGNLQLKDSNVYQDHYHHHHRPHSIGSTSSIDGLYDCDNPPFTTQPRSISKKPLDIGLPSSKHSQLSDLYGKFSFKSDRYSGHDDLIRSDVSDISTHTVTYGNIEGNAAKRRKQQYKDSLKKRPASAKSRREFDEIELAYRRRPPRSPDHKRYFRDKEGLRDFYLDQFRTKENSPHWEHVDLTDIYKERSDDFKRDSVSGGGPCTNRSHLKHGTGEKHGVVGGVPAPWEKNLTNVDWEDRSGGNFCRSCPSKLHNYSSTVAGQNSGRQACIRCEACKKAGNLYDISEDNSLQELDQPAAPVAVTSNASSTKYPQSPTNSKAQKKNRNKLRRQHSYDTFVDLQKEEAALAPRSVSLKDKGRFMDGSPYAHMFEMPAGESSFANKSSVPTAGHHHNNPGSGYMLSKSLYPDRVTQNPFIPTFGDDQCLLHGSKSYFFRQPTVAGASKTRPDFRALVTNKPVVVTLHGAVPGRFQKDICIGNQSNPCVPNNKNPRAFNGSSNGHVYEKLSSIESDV
UniProt P42260, 32-908: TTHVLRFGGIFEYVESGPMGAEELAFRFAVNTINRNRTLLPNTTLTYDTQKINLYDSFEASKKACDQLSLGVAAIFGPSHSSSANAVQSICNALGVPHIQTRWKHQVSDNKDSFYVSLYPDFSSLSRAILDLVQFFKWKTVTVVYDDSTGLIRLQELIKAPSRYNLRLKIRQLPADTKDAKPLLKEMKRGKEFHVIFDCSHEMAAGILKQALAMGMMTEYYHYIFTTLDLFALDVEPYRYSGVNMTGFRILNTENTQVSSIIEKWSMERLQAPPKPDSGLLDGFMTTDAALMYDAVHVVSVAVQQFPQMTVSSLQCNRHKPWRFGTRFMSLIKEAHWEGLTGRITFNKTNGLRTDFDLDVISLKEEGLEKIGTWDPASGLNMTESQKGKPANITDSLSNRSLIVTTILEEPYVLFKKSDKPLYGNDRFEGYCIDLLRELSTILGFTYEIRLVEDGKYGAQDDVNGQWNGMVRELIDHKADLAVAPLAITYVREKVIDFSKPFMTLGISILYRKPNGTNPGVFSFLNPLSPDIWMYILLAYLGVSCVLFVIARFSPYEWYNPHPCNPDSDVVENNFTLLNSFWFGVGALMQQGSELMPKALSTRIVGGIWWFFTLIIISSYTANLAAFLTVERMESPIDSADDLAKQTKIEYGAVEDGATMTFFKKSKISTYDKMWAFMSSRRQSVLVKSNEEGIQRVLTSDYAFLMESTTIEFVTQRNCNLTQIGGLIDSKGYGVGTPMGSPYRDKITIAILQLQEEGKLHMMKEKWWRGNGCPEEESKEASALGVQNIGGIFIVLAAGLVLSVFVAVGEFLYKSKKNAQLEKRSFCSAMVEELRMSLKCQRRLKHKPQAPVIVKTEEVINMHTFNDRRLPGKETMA

In patent publication US6623933B1 (priority 1999, dated 2003):

What was measured:
NR1/NR2D (NR1100) = NR1/NR2D (NR1100) (Rattus norvegicus, UniProt P35439+Q62645); conditions: no PS
NR1/NR2C (NR1100) = NR1/NR2C (NR1100) (Rattus norvegicus, UniProt P35439+Q00961); conditions: no PS
NR1011/NR2A = NR1011/NR2A (Rattus norvegicus, UniProt P35439+Q00959)
NR1000/NR2A = NR1000/NR2A (Rattus norvegicus, UniProt P35439+Q00959); conditions: presence of 100 mM PS
NR1100/NR2A = NR1100/NR2A (Rattus norvegicus, UniProt P35439+Q00959); conditions: absence of PS
NR1010/NR2A = NR1010/NR2A (Rattus norvegicus, UniProt P35439+Q00959); conditions: absence of PS
NR1/NR2B (NR1100) = NR1/NR2B (NR1100) (Rattus norvegicus, UniProt P35439+Q00960); conditions: no PS
NR1001/NR2A = NR1001/NR2A (Rattus norvegicus, UniProt P35439+Q00959)
NR1/NR2A (NR1100) = NR1/NR2A (NR1100) (Rattus norvegicus, UniProt P35439+Q00959); conditions: no PS
NR1111/NR2A = NR1111/NR2A (Rattus norvegicus, UniProt P35439+Q00959)
NR1101/NR2A = NR1101/NR2A (Rattus norvegicus, UniProt P35439+Q00959)
GluR6 kainate receptor = molecular target: T1, GluR6 kainate receptor (Rattus norvegicus, UniProt P42260); assay: Kainate-induced currents, Xenopus oocytes injected with GluR6 cRNA; format: cell-based
T1 construct: expressed in transfected cells; host or cells: Xenopus oocytes injected with GluR6 cRNA (concanavalin A treated)
Source text: Plasmids were obtained from the following individuals: Dr. Suzanne Zukin (Albert Einstein College of Medicine, Bronx, N.Y.), NR1100; Dr. Shigetada Nakanishi (Kyoto University Faculty of Medicine, Kyoto, Japan), NR2A; Dr. Stephen Heinemann (Salk Institute, San Diego, Calif.), GluR1 (flop), GluR3 (flop), and GluR6. Plasmids were linearized with BamH1 (NR1100), XhoI (NR2A, GluR1, GluR3) or XbaI (GluR6) prior to in vitro transcription with T3 (GluR1, GluR3, GluR6) or T7 (NR1100, NR2A) RNA polymerase using the Message Machine kit (Ambion, Austin, Tex.). […] RNA solutions (50-70 nl) were injected into oocytes for delivery of NR1100 (5 ng), NR1100:NR2A (1:10 ng), GluR1 (5 ng). GluR3 (5 ng), or GluR6 (20 ng). Oocytes were incubated in ND96 at 18-20° C. for 3-7 days prior to electrophysiological recording.
Steroid solutions were prepared as 70-100 mM frozen stocks in dimethyl sulfoxide (DMSO). The final DMSO concentration of all recording solutions was between 0.1% to 0.5% and was constant within an experiment.
Perfusion control and data acquisition were carried out using an automated oocyte electrophysiology workstation that was developed for the rapid collection of concentration-response data and real-time waveform analysis (Yaghoubi et al., Soc. Neurosci. Abstr. 20: 1109 (1995)). […]
Results are expressed as mean±S.E.M. Statistical comparisons were made using Student's t-test.

SMILES	agonist nH (NR1/NR2D (NR1100))	agonist nH (NR1/NR2C (NR1100))	agonist nHill (NR1011/NR2A; absence of PS)	agonist nHill (NR1000/NR2A)	agonist nHill (NR1100/NR2A)	agonist nHill (NR1010/NR2A)	agonist Emax (NR1/NR2B (NR1100))	agonist Emax (NR1011/NR2A; absence of PS)	agonist nHill (NR1011/NR2A; presence of 100 mM PS)	agonist nHill (NR1001/NR2A; absence of PS)	agonist nHill (NR1001/NR2A; presence of 100 mM PS)	agonist nH (NR1/NR2A (NR1100))	agonist Emax (NR1/NR2A (NR1100); normalized to 200 μM NMDA plus 10 μM glycine)	agonist nHill (NR1111/NR2A; absence of PS)	agonist nHill (NR1111/NR2A; presence of 100 mM PS)	agonist nHill (NR1101/NR2A; absence of PS)	agonist nHill (NR1101/NR2A; presence of 100 mM PS)	kainate nH (GluR6 kainate receptor; +100 μM PS)	kainate nH (GluR6 kainate receptor; control)
N[C@@H](CCC(=O)O)C(=O)O [L-glutamate]	1.26 ± 0.12	1.27 ± 0.06	1.17 ± 0.03	1.17 ± 0.08															
NCC(=O)O [glycine]	1.12 ± 0.08	1.18 ± 0.05	1.30 ± 0.05	1.12 ± 0.05	1.23 ± 0.07	1.32 ± 0.07	1.49 ± 0.03	1.67 ± 0.08	1.34 ± 0.18	1.25 ± 0.07	1.30 ± 0.13	1.58 ± 0.04	1.58 ± 0.04	1.49 ± 0.06	1.26 ± 0.10	1.37 ± 0.13	1.32 ± 0.09		
C=C(C)[C@H]1CN[C@H](C(=O)O)[C@H]1CC(=O)O [kainate]																		1.2	1.1

Where two headings read alike, the source gives them in different places.
